Data taken from publication PMC8878464, “Fenchone Derivatives as a Novel Class of CB2 Selective Ligands: Design, Synthesis, X-ray Structure and Therapeutic Potential” (Molecules, 2022).
Read-outs that look alike come from different tables or passages of the source.

Protein sequences, listed by entry. Tags and fused reporters are not part of them.
UniProt P34972, whole entry: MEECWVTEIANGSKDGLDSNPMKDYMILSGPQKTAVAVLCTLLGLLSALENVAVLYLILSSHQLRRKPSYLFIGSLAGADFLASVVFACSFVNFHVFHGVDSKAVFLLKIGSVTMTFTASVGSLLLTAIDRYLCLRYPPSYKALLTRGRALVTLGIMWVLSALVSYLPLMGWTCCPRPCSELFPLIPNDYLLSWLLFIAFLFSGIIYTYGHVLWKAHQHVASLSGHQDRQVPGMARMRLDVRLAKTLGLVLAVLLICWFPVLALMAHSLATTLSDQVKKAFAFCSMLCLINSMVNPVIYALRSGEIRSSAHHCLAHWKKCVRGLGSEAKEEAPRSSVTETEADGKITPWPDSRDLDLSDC

Legend:
[1] = target: human CB2R (hCB2R) (Homo sapiens, UniProt P34972); assay: [3H]CP-55,940 competition displacement binding assay, hCB2R membranes; settings: displacement of [3H]CP-55,940, membranes of CHO-K1 cells expressing human CB2R
Description: The compounds were further characterized using a radioligand binding assay to determine their affinities for CB1R and CB2R based on each test compound’s ability to displace the radiolabeled CB1R/CB2R agonist CP-55,940 from membranes of cells expressing the human CB1R and CB2R [24].
Membranes from cells expressing hCB1R and hCB2R were purchased from Charles River, (Cat#A317 and A318, respectively; OH, USA). Solutions of test compounds ranging from 0.1 nM to 10 mM were prepared in DMSO. The desired amount of membrane preparation was diluted with ice-cold assay buffer (50 mM Tris-HCl, 2.5 mM EDTA, 5 mM MgCl2, 0.1% BSA, pH 7.4) and was vortexed. […] The assays were incubated for 90 min at 30 °C and then immediately filtered on WHATMAN GF/B Filter Paper (Fired) using a Brandel M-24R Harvester followed by six washes with ice cold wash buffer (50 mM Tris-HCl, 2.5 mM EDTA, 5 mM MgCl2, 0.1% BSA, pH 7.4). Radioactivity was detected by adding the Filter Paper directly to the ULTIMA GOLD scintillation cocktail (PerkinElmer, Waltham, MA, USA), incubation at 20 °C for 60 min and then counted using a Tri-Carb 4910TR liquid scintillation counter (PerkinElmer, Waltham, MA, USA).
Each curve represents the mean of three experiments performed in triplicate.

[2] = target: T1, hCB2R (Homo sapiens, UniProt P34972); assay: [35S]GTPγS binding assay at hCB2R; assay type: biochemical; settings: EC50(nM), increase in [35S]GTPγS binding to hCB2R; two independent experiments in triplicate
T1 construct: purchased Charles River A318; host or cells: CHO-K1 cells
Description: The method used for measuring agonist-stimulated binding of [^35S]GTPγS was based on a described protocol. Membranes (5 μg protein) were incubated in GTPγS assay buffer (50 mM Tris HCl (pH 7.4), 0.2 mM EGTA, 9 mM MgCl2, 150 mM NaCl, 1 mg/mL BSA) containing 100 μM GDP, 0.05 nM [^35S]GTPγS and test compounds at various concentrations. Vacuum filtration was used to separate bound ligand from free ligand. We used 10 μM GTPS to determine nonspecific binding. Basal binding was assayed in the absence of the ligand and in the presence of GDP.
Each symbol represents the mean percentage increase in [^35S]GTPγS binding ± SE.

## CCCCCCCCc1ccc(OC)c(C2(O)C3(C)CCC(C3)C2(C)C)c1 (stereo not drawn) [Compound 3h, 2-(2′-Methoxy-5′-octylphenyl)-1,3,3-trimethylbicyclo[2.2.1]heptan-2-ol]
[1]; read-out: Ki (nM) hCB2R
  Ki: 494 nM

## CCCCCCC(C)(C)c1cc(OC)c([C@@H]2C=C(CO)[C@@H]3C[C@H]2C3(C)C)c(OC)c1 [HU-308, reference compound]
[1]; Ki (nM) hCB2R
  Ki: 1.16 nM
[2]
  EC50: 1.01 nM
